Experimental findings from ChEMBL document CHEMBL1148352, “1,2,4-triazolo[4,3-a]quinoxalin-1-one moiety as an attractive scaffold to develop new potent and selective human A3 adenosine receptor antagonists: synthesis, pharmacological, and ligand-receptor modeling studies” (J Med Chem, 2004) are described below.

Sequences of proteins named here, by UniProt entry; tags and fusion partners are left off.
UniProt P28190, whole entry: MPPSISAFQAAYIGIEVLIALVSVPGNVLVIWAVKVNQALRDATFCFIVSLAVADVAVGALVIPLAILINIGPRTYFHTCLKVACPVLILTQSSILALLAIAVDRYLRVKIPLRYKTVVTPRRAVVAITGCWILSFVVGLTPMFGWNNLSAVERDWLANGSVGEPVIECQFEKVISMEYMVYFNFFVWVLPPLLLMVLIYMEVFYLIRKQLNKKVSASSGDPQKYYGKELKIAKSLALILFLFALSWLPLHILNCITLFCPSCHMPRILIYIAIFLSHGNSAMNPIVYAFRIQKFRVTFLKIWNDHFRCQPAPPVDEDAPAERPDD

Assay [1] deals with Adenosine receptor A2a (Bos taurus). Description: Inhibition of [3H]-CGS- 21680 binding to adenosine A2a receptor of bovine striatal membranes.
Assay [2] has as its target Adenosine receptor A1 (Bos taurus, UniProt P28190).

SMILES strings stand for the structures.

Take `COc1ccc(-n2nc3c(=O)[nH]c4ccccc4n3c2=O)cc1`: the I in assay [1] was determined as 0%.

In general, Ki refers to the equilibrium dissociation constant of an inhibitor or competing ligand from its target. Higher therefore signals weaker binding. Regarding `Nc1ccc(-n2nc3c(=O)[nH]c4ccccc4n3c2=O)cc1`, the Ki in assay [2] stood at 8.7 nM.
